Earlier results on one substance are cited in PMC7456046.

Broadly, the Kd is the equilibrium constant for the complex coming apart.

Where two headings read alike, the source gives them in different places.

For series [1], the target named is calcineurin beta CaM binding region (Homo sapiens) (UniProt P16298).
The target in series [2] is calcineurin alpha (Homo sapiens) (UniProt Q08209). Put plainly: stopped-flow fluorescence.
Series [3] shares this target.

For calmodulin (from UniProt P0DP23), the Kd in series [1] was 1 pM; in series [2], 0.026 nM; in series [3], 16 nM.
